Test: Cyclic voltammetry of Poly-Pt (Pt(IV)/Pt(II) couple)
Assay type: physicochemical
Details: pH 7.4, 25° C., irreversible cyclic voltammetric response

- reduction potential, Pt(IV)/Pt(II) couple: −0.850 V vs Ag/AgCl
Substance: c,c,t[Pt(NH3)Cl2(OH)(succinate)] [Pt-Monosuccinate]
